# Bioassay records deposited in PubChem BioAssay by Broad Institute.
# The list is not random: actives were taken first. Their share in the collection is about 1.8%.
# AF4-AF9 inh – inhibitors of human MLL-AF4/AF9 interaction; 350,000 tested, 0.47% active; AlphaScreen, biotin-AF4 peptide binding to FLAG-AF9; inhibition, % at 10 µM;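 active = every replicate reaching a set inhibition limit, whatever the replicate mean, cut at about 25% in these data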;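 also: 0% = plate neutral control median and 100% = total signal loss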
# RAD52 inh – blocks human RAD52 DNA annealing. recombinant RAD52 DNA annealing, FRET fluorescence. inhibition, % at 18.7 µM. 360,000 tested, 0.46% active;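 active = every replicate showing at least 50% inhibition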
# SIRT5 inh – inhibitors of human sirtuin-5 desuccinylase. Q9NXA8. Purified SirT5, succinyl-peptide AMC, trypsin-coupled fluorescence. inhibition, % at 15 µM. 330,000 tested, 1.1% active; in the data active = inhibition above about 15%
# E-selectin induc – induces E-selectin expression in human endothelial cells; P16581; HUVEC E-selectin immunofluorescence imaging; normalized: neutral wells 0, TNF-alpha wells 100; activation, % at 7.58 µM; 260,000 tested, 0.37% active; AID 686992;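 active = mean E-selectin-positive cell signal at least 10% of the positive control, reached in at least 60% of replicates, without over 20% cell loss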
#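 Assay system: HUVEC primary endothelial cells. Input: 3,000 HUVEC seeded per well. Doses: one compound dose added by pin transfer. Read-out basis: % PE-positive cells. Benchmarks: TNF-alpha high, DMSO low. Detection: immunofluorescence imaging. Buffer or medium: EGM-2, gelatin.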
# UUG fidelity – alters start codon recognition fidelity in yeast | S. cerevisiae UUG-firefly luciferase reporter, luminescence/redox ratio | activity score, % at 18.7 µM | 350,000 compounds, 0.13% hits | AID 602363;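 active = replicate mean at a twofold rise or more, about +100% in these data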;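 note: firefly luciferase made from a UUG start codon reports start codon fidelity; reporter light over untreated wells divided by growth signal over untreated wells; some hits fall short of that in this replicate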
# RAD54 branch – RAD54 (human) branch migration inhibition | RAD54 Holliday junction branch migration, FAM/BHQ fluorescence | Q92698 | inhibition, % at 10.4 µM | 360,000 tested, 0.14% active;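 active = mean normalized replicate activity at least 40 and at least half of replicates scoring 40 or more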;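 also: 0% = median of neutral control wells and 100% = median of positive control wells; inhibitors cause a drop in the FAM fluorescence signal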
# Starred values were filed as active, the others as inactive; . = no result given.
no. | structure | AF4-AF9 inh | RAD52 inh | SIRT5 inh
1 | C[C@H]1CCCCO[C@@H](CN(C)C(=O)Nc2ccc(C(F)(F)F)cc2)[C@@H](C)CN([C@@H](C)CO)C(=O)c2cc(NC(=O)c3ccncc3)ccc2O1 | -3 | -37 | 13
2 | C[C@H]1CN([C@@H](C)CO)C(=O)Cc2cc(NC(=O)Nc3ccc(F)cc3)ccc2O[C@H]1CN(C)C(=O)Nc1ccc(F)cc1 | -1 | 4 | 16*
3 | Cc1noc(C)c1NC(=O)N(C)C[C@H]1Oc2ccc(NC(=O)NC(C)C)cc2CC(=O)N([C@H](C)CO)C[C@H]1C | 0 | 2 | 21*
4 | Cc1noc(C)c1NC(=O)N(C)C[C@H]1Oc2ccc(NC(=O)NC(C)C)cc2CC(=O)N([C@@H](C)CO)C[C@@H]1C | -11 | 1 | -3
5 | CN(C)CCCN(C(=O)c1ccc2c(c1)CCCC2)c1nc2ccc(Cl)cc2s1 | 27* | 42 | .
6 | CN(C)CCCN(C(=O)c1ccc2ccccc2c1)c1nc2cc3c(cc2s1)OCO3 | 33* | 50 | -1
7 | CN(C)CCCN(C(=O)COc1ccc(Cl)cc1)c1nc2cc3c(cc2s1)OCCO3 | 9 | 60* | 12
8 | CCOC(=O)N1CCN(S(=O)(=O)c2ccc(C(=O)N(CCCN(C)C)c3nc4ccc(Cl)cc4s3)cc2)CC1 | 4 | 16 | 0
9 | CN(C)CCN(C(=O)c1ccc(N2C(=O)CCC2=O)cc1)c1nc2cc3c(cc2s1)OCO3 | . | 25 | 0
10 | CN(C)CCN(C(=O)c1cccc2ccccc12)c1nc2cc3c(cc2s1)OCO3 | 28* | 0 | -1
11 | COc1ccc2c3c([nH]c2c1)[C@H](CO)N(C(C)=O)CC31CN(C(=O)Nc2ccccc2F)C1 | 1 | . | .
12 | O=C(C[C@@H]1CC[C@H](NS(=O)(=O)c2ccccc2)[C@H](CO)O1)NCCN1CCCCC1 | 0 | -5 | -5
13 | O=C(CN1CCOCC1)NC[C@@H]1[C@@H](c2ccccc2)[C@@H](CO)N1CC1CC1 | -3 | -2 | -3
14 | O=C(c1ccncc1)N1CC(=O)N2[C@H](CO)[C@@H](c3ccc(-c4ccccc4)cc3)[C@@H]2C1 | 0 | -3 | 7
15 | C[C@@H]1CN([C@@H](C)CO)C(=O)c2cc(N(C)C)ccc2O[C@@H](C)CCCCO[C@@H]1CN(C)C(=O)Nc1ccc(C(F)(F)F)cc1 | . | . | .

no. | E-selectin induc | UUG fidelity | RAD54 branch
1 | 0 | -2 | 4
2 | 1 | -3 | -1
3 | . | 18 | 7
4 | . | 11 | 9
5 | 0 | . | .
6 | 0 | -19 | 33
7 | . | 4 | 20
8 | . | -14 | 5
9 | 0 | -12 | 36
10 | . | 1 | 23
11 | 0 | . | .
12 | 0 | -18 | -5
13 | 0 | . | .
14 | 0 | . | .
15 | 0 | . | .

# Other records follow:
no. | structure | AF4-AF9 inh | RAD52 inh | SIRT5 inh
16 | Cc1ccc(S(=O)(=O)N(C)C[C@H]2Oc3c(NS(=O)(=O)c4ccc(Cl)cc4)cccc3C(=O)N([C@@H](C)CO)C[C@H]2C)cc1 | 0 | -29 | 3
17 | O=C(c1cc(COc2cccc3cccnc23)on1)N1CCC[C@H]1CO | 41* | -3 | -3
18 | COC(=O)C1CCCCN1C(=O)c1cc(COc2cccc3cccnc23)on1 (stereo not given) | 0 | -16 | -2
19 | O=C(NCc1ccc(F)cc1)[C@H]1N[C@H]2c3ccc(-c4ccccc4)c(=O)n3C[C@H]2[C@@H]1CO | 3 | -10 | -21
20 | Cc1cc(OCC(O)CNC(C)(C)C)ccc1Cl (stereo not given) | 0 | -11 | 21*
21 | C[C@H](NC(=O)c1[nH]cnc1C(=O)Nc1ccccc1)C(=O)OC(C)(C)C | 47* | -16 | .
22 | Cc1ccc(NC(=O)c2nc[nH]c2C(=O)N[C@@H](C)C(=O)OC(C)(C)C)cc1 | -1 | 3 | .
23 | C[C@@H](O)CNC(=O)c1[nH]cnc1C(=O)Nc1cccc(Cl)c1 | -2 | -14 | -4
24 | Cc1cccc(NC(=O)c2nc[nH]c2C(=O)NC[C@H](C)O)c1 | 1 | -4 | 27*
25 | C[C@H]1CN([C@@H](C)CO)C(=O)c2cccc(NS(C)(=O)=O)c2O[C@@H]1CN(C)Cc1ccc(C(F)(F)F)cc1 | -2 | 2 | 6
26 | O=C(Nc1ccc(Cl)cc1)N1C[C@@H]2[C@H](c3ccccc31)[C@@H](CO)N2C(=O)C1CC1 | -1 | -7 | 0

no. | E-selectin induc | UUG fidelity | RAD54 branch
16 | 0 | -4 | 0
17 | -3 | -28 | -2
18 | . | -13 | -17
19 | 0 | . | -12
20 | . | . | .
21 | 0 | -7 | -5
22 | 0 | -18 | 12
23 | 0 | -9 | 0
24 | 0 | -18 | 3
25 | -1 | 2 | -3
26 | 0 | -12 | 13

# Filtered by structure, the entries above with two or more sulfur atoms (2)
no. | structure | AF4-AF9 inh | RAD52 inh | SIRT5 inh
8 | CCOC(=O)N1CCN(S(=O)(=O)c2ccc(C(=O)N(CCCN(C)C)c3nc4ccc(Cl)cc4s3)cc2)CC1 | 4 | 16 | 0
16 | Cc1ccc(S(=O)(=O)N(C)C[C@H]2Oc3c(NS(=O)(=O)c4ccc(Cl)cc4)cccc3C(=O)N([C@@H](C)CO)C[C@H]2C)cc1 | 0 | -29 | 3

no. | E-selectin induc | UUG fidelity | RAD54 branch
8 | . | -14 | 5
16 | 0 | -4 | 0
